# Data as given in ChEMBL document CHEMBL2163268, “Structure-based design of a novel series of potent, selective inhibitors of the class I phosphatidylinositol 3-kinases” (J Med Chem, 2012).
# By UniProt entry, the sequences of proteins in these tests, tags left out. Where a name states a change or a piece, a line headed by the entry shows the natural chain unless it says otherwise.
# UniProt P42338: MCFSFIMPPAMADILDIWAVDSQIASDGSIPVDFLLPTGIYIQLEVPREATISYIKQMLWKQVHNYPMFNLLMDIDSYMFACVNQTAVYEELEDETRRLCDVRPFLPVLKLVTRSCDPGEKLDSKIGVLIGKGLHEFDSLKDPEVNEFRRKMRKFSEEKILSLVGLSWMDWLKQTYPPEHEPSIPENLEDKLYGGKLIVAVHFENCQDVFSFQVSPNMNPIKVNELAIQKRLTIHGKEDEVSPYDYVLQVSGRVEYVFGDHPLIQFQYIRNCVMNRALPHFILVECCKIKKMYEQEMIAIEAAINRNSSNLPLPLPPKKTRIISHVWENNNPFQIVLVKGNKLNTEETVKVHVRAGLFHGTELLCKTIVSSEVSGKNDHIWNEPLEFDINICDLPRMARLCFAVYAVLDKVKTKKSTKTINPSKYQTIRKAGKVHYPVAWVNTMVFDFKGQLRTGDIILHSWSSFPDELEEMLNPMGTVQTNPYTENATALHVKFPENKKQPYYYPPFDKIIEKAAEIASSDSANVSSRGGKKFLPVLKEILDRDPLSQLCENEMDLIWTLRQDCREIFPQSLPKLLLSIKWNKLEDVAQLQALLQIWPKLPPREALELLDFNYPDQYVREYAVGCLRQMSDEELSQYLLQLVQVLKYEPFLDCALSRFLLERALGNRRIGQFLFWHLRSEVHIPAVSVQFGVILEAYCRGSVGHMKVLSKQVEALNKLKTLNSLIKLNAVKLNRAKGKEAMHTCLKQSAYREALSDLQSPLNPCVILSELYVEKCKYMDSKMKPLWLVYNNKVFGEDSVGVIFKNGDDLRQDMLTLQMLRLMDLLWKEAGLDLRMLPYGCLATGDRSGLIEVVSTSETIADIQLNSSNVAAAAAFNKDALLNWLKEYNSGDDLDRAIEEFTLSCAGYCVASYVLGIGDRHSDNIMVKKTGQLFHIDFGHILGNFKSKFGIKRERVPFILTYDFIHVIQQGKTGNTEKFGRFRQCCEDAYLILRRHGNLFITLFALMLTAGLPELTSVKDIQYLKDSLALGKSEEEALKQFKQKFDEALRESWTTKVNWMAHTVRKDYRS
# UniProt P42336, whole entry: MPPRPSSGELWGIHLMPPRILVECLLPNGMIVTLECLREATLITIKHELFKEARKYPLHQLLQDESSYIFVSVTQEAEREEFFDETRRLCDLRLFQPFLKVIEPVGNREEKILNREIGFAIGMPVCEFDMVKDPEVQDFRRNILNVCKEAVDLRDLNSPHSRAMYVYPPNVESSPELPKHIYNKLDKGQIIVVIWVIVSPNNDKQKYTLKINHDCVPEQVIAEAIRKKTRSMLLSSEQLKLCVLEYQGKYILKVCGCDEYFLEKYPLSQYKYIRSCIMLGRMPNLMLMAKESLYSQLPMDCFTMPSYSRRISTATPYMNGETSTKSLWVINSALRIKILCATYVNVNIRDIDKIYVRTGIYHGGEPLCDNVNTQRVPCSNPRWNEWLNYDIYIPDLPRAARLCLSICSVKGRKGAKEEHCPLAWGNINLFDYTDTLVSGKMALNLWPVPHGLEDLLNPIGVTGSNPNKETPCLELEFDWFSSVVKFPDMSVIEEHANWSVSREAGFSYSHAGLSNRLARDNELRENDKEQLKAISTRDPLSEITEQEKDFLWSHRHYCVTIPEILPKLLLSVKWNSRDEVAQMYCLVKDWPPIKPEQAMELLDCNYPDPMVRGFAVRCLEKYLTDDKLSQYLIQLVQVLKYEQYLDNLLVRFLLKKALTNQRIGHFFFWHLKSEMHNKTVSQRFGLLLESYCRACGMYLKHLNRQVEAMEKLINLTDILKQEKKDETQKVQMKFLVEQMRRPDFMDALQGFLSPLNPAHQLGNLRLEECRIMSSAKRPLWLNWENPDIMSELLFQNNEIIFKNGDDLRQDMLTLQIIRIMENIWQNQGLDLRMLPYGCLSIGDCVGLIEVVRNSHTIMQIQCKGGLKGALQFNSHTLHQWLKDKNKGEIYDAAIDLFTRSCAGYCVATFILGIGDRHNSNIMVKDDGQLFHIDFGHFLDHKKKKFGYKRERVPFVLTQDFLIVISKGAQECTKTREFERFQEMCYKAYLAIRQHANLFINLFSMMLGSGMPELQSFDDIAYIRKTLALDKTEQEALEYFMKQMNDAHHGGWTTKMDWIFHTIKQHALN
# UniProt P48736: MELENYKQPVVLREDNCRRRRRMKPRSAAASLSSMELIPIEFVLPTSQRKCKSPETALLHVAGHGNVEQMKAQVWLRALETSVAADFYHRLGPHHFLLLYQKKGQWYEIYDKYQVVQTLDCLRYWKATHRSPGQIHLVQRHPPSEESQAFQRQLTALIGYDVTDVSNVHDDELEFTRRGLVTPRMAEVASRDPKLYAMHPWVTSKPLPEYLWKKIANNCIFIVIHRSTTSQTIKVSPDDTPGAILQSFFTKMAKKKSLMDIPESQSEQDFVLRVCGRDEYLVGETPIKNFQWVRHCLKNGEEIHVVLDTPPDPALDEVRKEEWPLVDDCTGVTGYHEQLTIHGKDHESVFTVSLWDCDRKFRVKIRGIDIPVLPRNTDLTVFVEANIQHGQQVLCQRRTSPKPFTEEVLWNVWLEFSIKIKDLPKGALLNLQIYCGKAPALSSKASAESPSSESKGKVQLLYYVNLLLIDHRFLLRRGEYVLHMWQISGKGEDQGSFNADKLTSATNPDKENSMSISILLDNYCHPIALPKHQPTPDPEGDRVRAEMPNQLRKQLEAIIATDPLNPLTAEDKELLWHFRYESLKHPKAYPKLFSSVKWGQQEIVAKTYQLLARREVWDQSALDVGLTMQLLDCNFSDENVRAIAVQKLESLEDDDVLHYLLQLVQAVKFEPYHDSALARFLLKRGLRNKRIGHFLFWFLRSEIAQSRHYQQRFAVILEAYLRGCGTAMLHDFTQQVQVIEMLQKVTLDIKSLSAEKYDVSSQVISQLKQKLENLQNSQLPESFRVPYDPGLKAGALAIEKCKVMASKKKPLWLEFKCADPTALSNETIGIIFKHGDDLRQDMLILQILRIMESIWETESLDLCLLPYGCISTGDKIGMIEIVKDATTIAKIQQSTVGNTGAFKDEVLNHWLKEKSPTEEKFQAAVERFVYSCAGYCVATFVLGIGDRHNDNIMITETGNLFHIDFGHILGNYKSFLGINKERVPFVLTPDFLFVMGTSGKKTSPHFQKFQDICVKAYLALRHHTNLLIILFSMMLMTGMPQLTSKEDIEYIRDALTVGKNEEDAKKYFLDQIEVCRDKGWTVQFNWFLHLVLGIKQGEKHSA
# How the values were obtained:
# Test in all cases: biochemical
# [1] = biological target: Phosphatidylinositol 4,5-bisphosphate 3-kinase catalytic subunit beta isoform (Homo sapiens, UniProt P42338)
# [2] = biological target: Phosphatidylinositol 4,5-bisphosphate 3-kinase catalytic subunit alpha isoform (Homo sapiens, UniProt P42336)
# [3] = biological target: Phosphatidylinositol 4,5-bisphosphate 3-kinase catalytic subunit gamma isoform (Homo sapiens, UniProt P48736)
# [4] = biological target: T1, Phosphatidylinositol 4,5-bisphosphate 3-kinase catalytic subunit delta isoform (Homo sapiens, UniProt O00329)
# T1 sequence (O00329 whole entry): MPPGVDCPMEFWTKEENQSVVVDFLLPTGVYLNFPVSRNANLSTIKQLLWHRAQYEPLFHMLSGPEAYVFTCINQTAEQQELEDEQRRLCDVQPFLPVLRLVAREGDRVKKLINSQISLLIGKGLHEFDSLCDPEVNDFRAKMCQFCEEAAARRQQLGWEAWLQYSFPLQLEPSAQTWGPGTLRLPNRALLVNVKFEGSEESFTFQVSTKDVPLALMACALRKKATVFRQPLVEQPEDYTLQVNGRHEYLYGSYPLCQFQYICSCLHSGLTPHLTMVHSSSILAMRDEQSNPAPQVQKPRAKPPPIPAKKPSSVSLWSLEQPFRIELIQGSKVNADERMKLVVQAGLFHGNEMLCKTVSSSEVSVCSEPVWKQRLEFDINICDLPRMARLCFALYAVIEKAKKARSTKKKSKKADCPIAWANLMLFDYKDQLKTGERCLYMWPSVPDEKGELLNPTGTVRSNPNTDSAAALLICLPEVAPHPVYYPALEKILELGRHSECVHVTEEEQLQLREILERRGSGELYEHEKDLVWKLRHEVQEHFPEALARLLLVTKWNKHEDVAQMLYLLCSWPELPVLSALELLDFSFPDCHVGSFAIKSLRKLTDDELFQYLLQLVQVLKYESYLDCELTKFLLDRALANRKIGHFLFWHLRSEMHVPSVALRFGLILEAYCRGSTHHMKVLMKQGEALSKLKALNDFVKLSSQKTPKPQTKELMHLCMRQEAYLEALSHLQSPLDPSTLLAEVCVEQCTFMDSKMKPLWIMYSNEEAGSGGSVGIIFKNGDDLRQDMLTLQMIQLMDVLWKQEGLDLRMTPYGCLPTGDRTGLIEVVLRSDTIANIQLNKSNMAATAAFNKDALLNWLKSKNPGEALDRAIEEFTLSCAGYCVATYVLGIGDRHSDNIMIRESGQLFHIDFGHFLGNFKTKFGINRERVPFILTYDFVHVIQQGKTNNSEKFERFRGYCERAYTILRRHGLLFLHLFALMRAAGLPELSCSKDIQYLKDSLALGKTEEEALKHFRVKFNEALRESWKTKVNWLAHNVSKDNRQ
smiles,measurement,setting,value
Cc1nc(-c2cccnc2Nc2cccc3[nH]ncc23)c2nc[nH]c2n1,Ki,[1],28 nM
COc1ccc(Nc2ncc(Cc3ccc(S(C)(=O)=O)cc3)cc2-c2nc(C)nc(N)n2)cn1,Ki,[1],2 nM
same,Ki,[2],3 nM
COc1ccc(Nc2ncc(-c3ccc(C)nc3)cc2-c2nc(C)nc(N)n2)cn1,Ki,[3],8 nM
COc1ccc(Nc2ncccc2-c2nc(C)nc3nc[nH]c23)cn1,Ki,[4],70 nM
